{
  "sequences": {"note": "Chains of the proteins cited; added tags and fusions are not shown. Lines headed by an entry give the natural chain unless they say otherwise; changes in a name come on top.", "UniProt P35372, whole entry, looked up": "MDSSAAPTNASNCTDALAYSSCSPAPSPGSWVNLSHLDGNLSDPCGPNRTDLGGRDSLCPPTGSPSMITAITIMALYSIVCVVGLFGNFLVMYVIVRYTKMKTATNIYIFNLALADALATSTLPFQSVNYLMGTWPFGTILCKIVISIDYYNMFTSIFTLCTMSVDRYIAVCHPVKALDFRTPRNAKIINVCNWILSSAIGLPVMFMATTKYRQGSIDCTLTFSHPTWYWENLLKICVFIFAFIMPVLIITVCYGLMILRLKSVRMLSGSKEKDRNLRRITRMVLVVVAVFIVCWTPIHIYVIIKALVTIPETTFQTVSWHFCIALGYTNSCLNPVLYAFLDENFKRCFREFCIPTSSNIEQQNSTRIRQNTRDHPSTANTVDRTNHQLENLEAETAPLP", "UniProt P41146": "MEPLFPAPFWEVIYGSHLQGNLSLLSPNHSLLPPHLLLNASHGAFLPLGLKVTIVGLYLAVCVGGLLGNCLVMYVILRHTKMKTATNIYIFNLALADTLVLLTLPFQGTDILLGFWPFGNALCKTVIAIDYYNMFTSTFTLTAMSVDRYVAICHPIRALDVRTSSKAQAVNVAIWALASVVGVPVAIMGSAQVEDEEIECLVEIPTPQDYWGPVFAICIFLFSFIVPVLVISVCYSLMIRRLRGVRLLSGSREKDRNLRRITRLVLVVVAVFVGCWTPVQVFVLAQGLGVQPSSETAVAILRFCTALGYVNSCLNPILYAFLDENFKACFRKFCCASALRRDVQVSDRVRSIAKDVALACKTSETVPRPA"},
  "source": "paper PMC9065038",
  "about": "(Scientific Reports, 2022)",
  "key": {"[1]": {"conditions": "human clinical trials; cited from earlier work"}, "human MOP [2]": {"target": "T1, human MOP (Homo sapiens, UniProt P35372)", "assay": "Radioligand displacement competition binding, [3H]DAMGO, CHO cell membranes"}, "[3]": {"conditions": "nonhuman primates; cited from earlier work"}, "human NOP [4]": {"target": "T2, human NOP (Homo sapiens, UniProt P41146)", "assay": "[35S]GTPγS binding assay, CHO cell membranes", "conditions": "relative to N/OFQ"}, "human MOP [5]": {"target": "T1, human MOP", "assay": "[35S]GTPγS binding assay, CHO cell membranes", "conditions": "relative to DAMGO"}, "human NOP [6]": {"target": "T2, human NOP", "assay": "Radioligand displacement competition binding, [3H]N/OFQ, CHO cell membranes"}, "human NOP [7]": {"target": "T2, human NOP", "assay": "GIRK channel-based fluorescent membrane potential assay in AtT-20 cells"}, "human MOP [8]": {"target": "T1, human MOP", "assay": "GIRK channel-based fluorescent membrane potential assay in AtT-20 cells"}},
  "data": [
    {"compound": "CN(C)[C@]1(c2ccccc2)CC[C@]2(CC1)OCCc1c3cc(F)ccc3[nH]c12", "values": [
      {"measurement": "drug liking", "setting": "[1]", "value": "produced drug liking"},
      {"measurement": "affinity at MOP (in words)", "setting": "human MOP [2]", "value": "high affinity"},
      {"measurement": "reinforcing effects", "setting": "[3]", "value": "produced reinforcing effects"},
      {"measurement": "respiratory or motor deficits, itching", "setting": "[3]", "value": "did not elicit respiratory or motor deficits, or itching"}
    ]},
    {"compound": "O=C1Cc2ccccc2N1C1CCN(C2C3CCCC2CCC3)CC1", "note": "(stereo not drawn) [AT-201, 1-(1-(bicyclo[3.3.1]nonan-9-yl)piperidin-4-yl)indolin-2-one]", "values": [
      {"measurement": "agonist efficacy at NOP in [35S]GTPγS binding (in words)", "setting": "human NOP [4]", "value": "partial agonist efficacy"},
      {"measurement": "agonist efficacy at MOP in [35S]GTPγS binding (in words)", "setting": "human MOP [5]", "value": "partial agonist efficacy"},
      {"measurement": "affinity at NOP (in words)", "setting": "human NOP [6]; radioligand displacement", "value": "high affinity"},
      {"measurement": "Ki", "setting": "human NOP [6]; read-out: Radioligand Displacement Ki, NOP, CHO cells stably expressing NOP, [3H]N/OFQ", "value": 5.36, "unit": "nM"},
      {"measurement": "agonist efficacy at NOP in GIRK assay (in words)", "setting": "human NOP [7]; compared to N/OFQ", "value": "partial agonist efficacy"},
      {"measurement": "EC50", "setting": "human NOP [7]; read-out: GIRK NOP EC50, stably transfected AtT-20 cells", "value": 6.3, "unit": "nM"},
      {"measurement": "agonist efficacy at MOP in GIRK assay (in words)", "setting": "human MOP [8]; compared to DAMGO", "value": "high agonist efficacy"},
      {"measurement": "EC50", "setting": "human MOP [8]; read-out: GIRK MOP EC50, stably transfected AtT-20 cells", "value": 3.3, "unit": "nM"}
    ]}
  ]
}
